{"source": "patent US4543350A", "about": "“Carcinostatic agent” (Sanyo Machine Works, Ltd., priority 1982, dated 1985)", "system": "BW 5174 (thymoma of AKR mouse)", "experiment": "Cytotoxicity test (51Cr release) of spleen and intraperitoneal cells of Eisenin-administered mice", "type": "cell-based", "description": "Balb/C mice were intraperitoneally administered with 15 mg of Eisenin, and the control group was administered with starch. Further, the target cell employed was BW 5174 (thymoma of AKR mouse). The spleen cells and the intraperitoneal cells were respectively divided into the adherent cells and the non-adherent cells, and cytotoxicity was examined in each case.\n(1) Percent Cytotoxicity (%) in Table 3 is based on the following\n(2) Measurement is made by ^51 Cr release assay. (3) Acute Toxicit"}
{"substance": "L-Pyroglu-L-Gln-L-Ala [Eisenin]", "values": [{"measurement": "Percent Cytotoxicity, Intraperitoneal Cells Total", "setting": "intraperitoneal cells, total, Balb/C mice i.p. 15 mg Eisenin, 51Cr release", "result": 24, "unit": "%"}, {"measurement": "difference in cytotoxicity versus control group, spleen cells", "setting": "spleen cells", "result": "no significant difference"}]}
